For one experiment, the species on record is Homo sapiens. The experiment in a line: Selectivity ratio of Ki for human adenosine A1 receptor to Ki for human adenosine A2A receptor.
Experiment [1] addresses T1, Adenosine receptor A2b (Homo sapiens) (UniProt P29275).
T1 sequence (whole entry): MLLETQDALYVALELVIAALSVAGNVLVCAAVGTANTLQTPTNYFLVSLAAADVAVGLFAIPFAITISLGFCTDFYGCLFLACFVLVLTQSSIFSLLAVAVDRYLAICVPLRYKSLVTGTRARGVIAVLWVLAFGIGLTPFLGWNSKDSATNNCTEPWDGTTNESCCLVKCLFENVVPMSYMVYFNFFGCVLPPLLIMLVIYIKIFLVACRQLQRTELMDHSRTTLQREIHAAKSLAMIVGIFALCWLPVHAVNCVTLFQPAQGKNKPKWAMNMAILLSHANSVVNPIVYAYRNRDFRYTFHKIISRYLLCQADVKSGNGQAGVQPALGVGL
Briefly: Antagonist activity at human adenosine A2B receptor. The experiment is classed as functional.

In ChEMBL document CHEMBL1926574, “Synthesis and biological evaluation of a new series of 1,2,4-triazolo[1,5-a]-1,3,5-triazines as human A(2A) adenosine receptor antagonists with improved water solubility” (J Med Chem, 2011) one finds Ratio Ki and Antagonist potency (inhibitory concentration) data, which are given here for 3 compounds.

For `NCCOCCOCCNc1nc(N)n2nc(-c3ccco3)nc2n1.O=C(O)C(F)(F)F`, in the experiment listed under Homo sapiens, the Ratio Ki came out at 67.
Same read-out and setting: with `NCC1CCC(CNc2nc(N)n3nc(-c4ccco4)nc3n2)CC1.O=C(O)C(F)(F)F` (stereo not drawn) the figure was 79.
`Nc1nc(NCCc2ccc(O)cc2)nc2nc(-c3ccco3)nn12` yielded an Antagonist potency (inhibitory concentration) in experiment [1] of 0.028 µM.
